What was measured:
FAAH = FAAH (Homo sapiens, UniProt O00519); experiment: FAAH activity inhibition in human bladder epithelial cancer-derived cell line 5637 cells (Test Example 1); settings: radiolabeled anandamide substrate, 37° C. 30 minutes, URB597 10 μM = 0%, DMSO = 100%
[1] = system: L5/L6 spinal nerve-ligated rat; experiment: Antiallodynia effect in L5/L6 spinal nerve-ligated rat (neuropathic pain model), von Frey hair test (Test Example 3); settings: 3 mg/kg orally, 60 minutes before response threshold measurement; operated paw 0%, non-operated paw 100% in solvent group

Amino acid sequences for entries named in this document (tags omitted).
UniProt O00519, whole entry, looked up: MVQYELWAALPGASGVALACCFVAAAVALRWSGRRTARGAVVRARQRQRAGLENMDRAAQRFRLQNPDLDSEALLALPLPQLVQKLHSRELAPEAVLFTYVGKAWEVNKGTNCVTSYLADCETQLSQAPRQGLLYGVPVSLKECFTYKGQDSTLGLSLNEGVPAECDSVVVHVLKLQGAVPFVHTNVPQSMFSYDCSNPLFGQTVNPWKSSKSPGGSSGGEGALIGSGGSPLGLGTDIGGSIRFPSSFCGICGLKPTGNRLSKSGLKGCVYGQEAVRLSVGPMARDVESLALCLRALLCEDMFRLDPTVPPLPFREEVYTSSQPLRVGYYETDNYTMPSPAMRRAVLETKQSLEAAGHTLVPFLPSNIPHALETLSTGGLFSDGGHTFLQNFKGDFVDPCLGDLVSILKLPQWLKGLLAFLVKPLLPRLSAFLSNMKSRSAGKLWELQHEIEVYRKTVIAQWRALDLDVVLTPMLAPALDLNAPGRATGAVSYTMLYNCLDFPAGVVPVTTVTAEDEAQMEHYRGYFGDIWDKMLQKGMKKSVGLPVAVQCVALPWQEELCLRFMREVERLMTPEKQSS

| Compound | IC50 (FAAH) | Recovery rate (%) [1] |
| --- | --- | --- |
| Cc1ccc(OC(=O)N2CCC(n3ccc(-c4ccccc4)n3)CC2)cn1 | 0.11 nM | 90% |
| Cc1ncccc1OC(=O)N1CCC(c2nc(-c3ccccc3F)n[nH]2)CC1 | 0.38 nM | 119% |
| O=C(Oc1cccnc1)N1CCC(n2cc(-c3cccc(Cl)c3)nn2)CC1 | 0.7 nM | – |
| O=C(Oc1cccnc1)N1CCC(n2ncc(-c3ccc(F)cc3)n2)CC1 | 0.047 nM | – |
| O=C(Oc1cccnc1)N1CCC(c2nc(-c3ccccc3)cs2)CC1 | 0.3 nM | – |
| Cc1ccc(OC(=O)N2CCC(c3nc(-c4ccc(F)cc4)co3)CC2)cn1 | – | 83% |
| Cc1ccc(OC(=O)N2CCC(c3nc(-c4ccc(Cl)cc4)co3)CC2)cn1 | 0.16 nM | – |
| Cc1ccc(OC(=O)N2CCC(c3noc(-c4ccc(F)c(F)c4)n3)CC2)c(C)n1 | 2.6 nM | 117% |
| O=C(Oc1cccnc1)N1CCC(n2cc(-c3ccc(F)cc3)cn2)CC1 | 0.15 nM | – |
| Cc1ccc(OC(=O)N2CCC(c3ncc(-c4ccc(F)cc4)o3)CC2)cn1 | 0.56 nM | 97% |
| Cc1ncccc1OC(=O)N1CCC(c2ncc(-c3cccc(F)c3)o2)CC1.Cl | – | 94% |
| Cc1ccc(OC(=O)N2CCC(n3cnc(-c4ccccc4)c3)CC2)cn1 | 1.4 nM | – |
| O=C(Oc1cccnc1)N1CCC(n2nnc(-c3ccccc3)n2)CC1 | 2.2 nM | – |
| Cc1ccc(OC(=O)N2CCC(n3cnc(-c4ccc(F)cc4)n3)CC2)cn1 | 0.067 nM | – |
| O=C(Oc1cccnc1)N1CCC(c2nc(-c3ccc(F)cc3)no2)CC1 | 0.077 nM | 81% |
| Cc1ccc(OC(=O)N2CCC(c3nc(-c4ccc(F)cc4)n[nH]3)CC2)cn1 | 1.8 nM | 98% |
| O=C(Oc1cccnc1)N1CCC(c2nnc(-c3ccc(C(F)(F)F)cc3)o2)CC1 | 0.2 nM | – |
| O=C(Oc1cccnc1)N1CCC(c2cc(-c3ccccc3)n[nH]2)CC1 | 0.11 nM | 71% |
| Cc1ncccc1OC(=O)N1CCC(c2ncc(-c3ccc(F)cc3)o2)CC1 | 0.98 nM | 86% |
| O=C(Oc1cccnc1)N1CCC(c2nc(-c3ccccc3)n[nH]2)CC1 | 0.35 nM | 97% |
| O=C(Oc1cccnc1)N1CCC(c2nc(-c3ccccc3)c[nH]2)CC1 | 0.85 nM | – |
| O=C(Oc1cccnc1)N1CCC(c2nnc(-c3ccc(F)c(F)c3)o2)CC1 | 0.43 nM | 74% |

Source: patent US8207199B2, “Azole compound” (dated 2012)
